From patent publication US8709385B2, “Poloxamer foamable pharmaceutical compositions with active agents and/or therapeutic cells and uses” (Foamix Ltd., priority 2008, dated 2014)

Assay: Solubility and gelling of salicylic acid in Poloxamer 188 solution
Assay type: physicochemical
Settings: 0.25 gr. and 0.50 gr. in 12.5 gr.
Description: In both vials, 1 & 2, there are 12.5 gr. of 20% Poloxamer 188/purified water stock solution (2.5 gr. Poloxamer 188+10 gr. purified water).

dissolution in 20% Poloxamer 188/purified water stock solution: completely dissolved
SMILES: O=C(O)c1ccccc1O [Salicylic acid]
